Results from PMC8380238, “Structure-based virtual screening of CYP1A1 inhibitors: towards rapid tier-one assessment of potential developmental toxicants” (Archives of Toxicology, 2021).

Molecular target: T1, human recombinant CYP1A1 (rCYP1A1) (Homo sapiens, UniProt P04798)
T1 sequence (P04798 1-512): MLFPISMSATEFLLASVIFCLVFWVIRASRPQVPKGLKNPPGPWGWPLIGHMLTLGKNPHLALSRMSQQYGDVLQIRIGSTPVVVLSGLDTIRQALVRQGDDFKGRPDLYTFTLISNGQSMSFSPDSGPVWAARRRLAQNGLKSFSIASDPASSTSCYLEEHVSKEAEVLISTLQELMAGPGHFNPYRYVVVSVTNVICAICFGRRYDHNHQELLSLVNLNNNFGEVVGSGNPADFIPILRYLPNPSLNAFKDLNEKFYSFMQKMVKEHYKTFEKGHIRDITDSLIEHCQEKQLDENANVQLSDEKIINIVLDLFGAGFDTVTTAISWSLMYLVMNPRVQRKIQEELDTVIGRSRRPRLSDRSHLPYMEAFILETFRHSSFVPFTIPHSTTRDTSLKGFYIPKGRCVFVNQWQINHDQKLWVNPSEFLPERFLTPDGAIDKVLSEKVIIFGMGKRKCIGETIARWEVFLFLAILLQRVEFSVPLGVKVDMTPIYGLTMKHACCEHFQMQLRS
Assay: CYP1A1 activity assay repeated at six CEC concentrations (Ki, α, mode of inhibition)

Structure (SMILES)	α (degree to which the binding of inhibitor changes the affinity of the enzyme for substrate)
CCOC(=O)c1ccccc1C(=O)OCC [Diethyl phthalate]	8.4
CC(O)(CS(=O)(=O)c1ccc(F)cc1)C(=O)Nc1ccc(C#N)c(C(F)(F)F)c1 (centres unmarked) [Bicalutamide, reference compound]	2.7
